Reference: patent US12234211B2, “Cycloolefin substituted heteroaromatic compounds and their use” (HUTCHISON MEDIPHARMA LIMITED, priority 2017, dated 2025)

Molecular target: T1, IDH2-R140Q (Homo sapiens, UniProt P48735, R140Q)
T1 construct: expressed in transfected cells
T1 sequence (P48735 40-452 R140Q): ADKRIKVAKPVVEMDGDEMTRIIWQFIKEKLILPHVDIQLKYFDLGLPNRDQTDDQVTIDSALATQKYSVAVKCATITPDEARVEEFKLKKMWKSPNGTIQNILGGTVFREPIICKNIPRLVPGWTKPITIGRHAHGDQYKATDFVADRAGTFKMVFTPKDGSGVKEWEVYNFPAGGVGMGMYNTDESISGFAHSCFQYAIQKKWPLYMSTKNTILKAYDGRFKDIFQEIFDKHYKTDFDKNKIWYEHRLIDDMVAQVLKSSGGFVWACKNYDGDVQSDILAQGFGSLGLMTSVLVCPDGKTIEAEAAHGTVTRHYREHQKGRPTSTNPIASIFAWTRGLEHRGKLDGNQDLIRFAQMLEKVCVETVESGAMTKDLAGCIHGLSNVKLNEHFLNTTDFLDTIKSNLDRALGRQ
Test: Fluorescent determination of IDH2-R140Q cell activity (2-HG in U87MGR140Q cells)
Type: cell-based
Conditions: IC50 (2-HG inhibition)
Description: Enzyme reaction solution: 1 mM nicotinamide adenine dinucleotide (NAD), 0.6 ng/μL D-2-hydroxyglutarate dehydrogenase (D2HGDH), 0.8 U/mL lipoamidase dehydrogenase (Diaphorase) and 60 μM Resazurin in 40 mM Tris.HCl pH 8.8 assay buffer.
Standard curve stock solution: The standard of 2-HG sodium salt was serially diluted in serum-free MEM medium to make a standard curve stock solution.
100 μL of U87MGR140Q cells were seeded at a density of 6×10^4/mL per well in a 96-well plate a.
From each well of 96-well plate a, 50 μL of the culture supernatant was transferred to the corresponding well of 96-well plate b; at the same time, 50 μL of standard curve stocking solution was added to other wells of 96-well plate b. Then 10 μl of 360 mM hydrochloric acid was added to all the wells. […]
A standard curve of the fluorescence value vs. the corresponding 2-HG concentration was made, and the 2-HG concentration corresponding to each concentration point of the compound was calculated, then the inhibition ratio was calculated, and the data was analyzed using XLfit5 (ID Business Solutions Limited) software to obtain the IC50 value.
The inhibition ratio was calculated as follows: Inhibition Ratio (IH %)=(1-2-HG concentration of test compound treated cells/2-HG concentration of control cells)×100%.

`C[C@@H](Nc1nc(NC2CC(F)(F)C2)nc(C2=CC(O)CCC2)n1)C(F)(F)F` (stereo partly shown) [Compound 153] gave an IC50 of 99 nM.
